We go through two substances from article PMC8392593.

Usually Kd stands for the constant that tells how readily two partners part at equilibrium. A high value points to weaker binding.

Assay [1] concerns the target GST-MuRF1 (muscle-specific RING finger protein 1, TRIM63), labelled with NT-647 (rat) (UniProt Q91Z63). Description: other fluorescence titration; fluorescence quenching on Monolith NT.115; labelled MuRF1 5 nM, F-actin 6.25 μM to 0.763 nM, in F buffer to keep a-actin filamentous.
Assay [2] has the same target. Description: other fluorescence titration; fluorescence quenching on Monolith NT.115; labelled MuRF1 5 nM, G-actin 25 μM to 0.763 nM, in G buffer to keep a-actin monomeric.

In assay [1], “filamentous alpha-actin (F-actin) from rabbit skeletal muscle (from UniProt P68135 1-377) (natural protein; other documents disagree on this pair)” came in with a Kd of 0.0467 µM.

Turning to “monomeric globular alpha-actin (G-actin) from rabbit skeletal muscle (from UniProt P68135 1-377) (natural protein; other documents disagree on this pair)”, the Kd in assay [2] came out at 0.45 µM.
